# Most compounds without a hit are left out; they make up all but 0.43% or so of the library.
# GIV Gai3 FP: blocks GIV peptide binding to rat Galpha-i3. P08753. Galpha-i3/FITC-GIV peptide fluorescence polarization, 90 min; stronger effect = lower value; scaled: aluminum fluoride 0%, vehicle 100%. percent of control (FP), % (test concentration not listed). actives 0.42% (n = 210,000). AID 1224905;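 active means replicate mean at 85% of control or lower, very high polarization wells dropped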;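 further: wells of about 15 µL received 100 nL stock; the first replicate is given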
# HCMV NEC inh: cytomegalovirus nuclear egress complex inhibition. 0.15% of 190,000 active. HTRF UL50-UL53 interaction, normalized percent inhibition. inhibition, % (test concentration not listed). AID 1918969; in the data active means inhibition above about 27%, passing the limit was not always enough
# Numbers without * were called inactive; / = no result given.
# Start of the listing, in advance, six compounds:
SMILES,GIV Gai3 FP,HCMV NEC inh
CCN1CC2=C(OC(N)=C(C#N)C2c2ccc(F)cc2)/C(=C/c2ccc(F)cc2)C1 (stereo not given),123,/
N#CC1=C(N)OC2=C(CC/C2=C/c2ccccc2)C1c1ccccc1 (stereo not given),-57*,-42
O=S(=O)(c1ccc2c(c1)OCCO2)N1CCn2cccc2C1c1ccccc1F (stereo not given),103,/
COc1cccc(Cn2ccn(Cc3ccccc3)c(=O)c2=O)c1,103,-28
CCCC(=O)Nc1cccn(Cc2cccc(OC)c2)c1=O,97,50*
COc1ccc(-c2cc(-c3ccccc3O)nc(NC(N)=S)n2)cc1,/,51*

# Results, repeating the preview:
SMILES,GIV Gai3 FP,HCMV NEC inh
CCN1CC2=C(OC(N)=C(C#N)C2c2ccc(F)cc2)/C(=C/c2ccc(F)cc2)C1 (stereo not given),123,/
N#CC1=C(N)OC2=C(CC/C2=C/c2ccccc2)C1c1ccccc1 (stereo not given),-57*,-42
O=S(=O)(c1ccc2c(c1)OCCO2)N1CCn2cccc2C1c1ccccc1F (stereo not given),103,/
COc1cccc(Cn2ccn(Cc3ccccc3)c(=O)c2=O)c1,103,-28
CCCC(=O)Nc1cccn(Cc2cccc(OC)c2)c1=O,97,50*
COc1ccc(-c2cc(-c3ccccc3O)nc(NC(N)=S)n2)cc1,/,51*
NNc1nc(-c2ccccc2)cc(-c2ccccc2O)n1,103,/
COc1cccc(C(=O)Nc2ccc(SCc3nnc(-c4ccccc4)o3)cc2)c1,100,/
COc1cc(CN2CCC3(CC2)Nc2ccccc2-n2cccc23)cc(OC)c1OC,97,60*
COc1ccc(S(=O)(=O)N2CCC3(CC2)Nc2ccccc2-n2cccc23)cc1OC,103,6
FC(F)(F)COc1ccc(-c2nc(-c3ccc(Cl)cc3)cs2)cn1,100,-22
O=C(O)CCCc1nnc2c(=O)n(-c3ccc(Cl)cc3)ccn12,103,5
COc1ccc(/C=C2\C=C(c3ccccc3)N(c3ccccc3)C2=O)cc1Br,115,/
COc1ccc(/C=C2\C=C(c3ccccc3)N(c3ccc(C)c(C)c3)C2=O)cc1Br,64*,/
CCOC(=O)c1sc2ncccc2c1N,109,12
CC[n+]1c(/C=C/C=C2/N(C)c3ccccc3C2(C)C)sc2ccccc21,-20*,-10
CN1/C(=C\C=C(C#N)C#N)C(C)(C)c2ccccc21,/,14
COc1ccc2c(=O)c(-c3ccccn3)coc2c1,99,-6
CCN(CC)c1ccc(C=C2C(=O)OC(c3ccccc3)OC2=O)cc1 (stereo not given),/,9
CN(C)c1ccc(C=C2C(=O)OC(C)(C(C)(C)C)OC2=O)cc1 (stereo not given),17*,1
CCN(CC)c1ccc(C=C2C(=O)OC3(CCCC3)OC2=O)cc1,-26*,4
CN(C)c1ccc(C=C2C(=O)OC(C)(C)OC2=O)cc1,115,-25
COc1ccccc1CNC(=O)c1ccc(C)c(-n2cnc3cccnc32)c1,105,/
CCc1ccc(N2C(=O)NC(=O)/C(=C\c3ccc(OC(C)C(=O)O)cc3)C2=O)cc1 (stereo not given),100,78*
Cc1cc(C)cc(N2C(=O)NC(=O)/C(=C\c3ccc(OC(C)C(=O)O)cc3)C2=O)c1 (stereo not given),113,88*
CC(Oc1ccc(/C=C2\C(=O)NC(=O)N(c3ccc4c(c3)OCO4)C2=O)cc1)C(=O)O (stereo not given),104,-1
CCOc1ccc(N2C(=O)NC(=O)/C(=C\c3ccc(Br)cc3)C2=O)cc1,110,1
Cc1cc(C)n(CCC(=O)NC2CCCCCC2)n1,96,-24
COc1cc(NC(=O)c2csc(N)n2)cc(C(=O)Nc2cccc(C(F)(F)F)c2)c1,/,-18
O=C(O)C1C2C=CC(C2)C1C(=O)N1CCN(C(c2ccccc2)c2ccccc2)CC1 (stereo not given),97,/
Cc1ccc(C)c(CC2C(=O)Nc3c(C)cc(C)cc32)c1 (stereo not given),107,-2
O=c1[nH]c(Nc2ccccc2)cc2ccccc12,-60*,110*
O=C(O)c1cc2ccccc2c(=O)[nH]1,104,-23
COc1ccccc1CNC(=O)/C=C/C(=O)O,99,-6
O=S(=O)(/N=C1\C=C2N(CCO)CCOC2(O)c2ccccc21)c1ccc(F)cc1 (stereo not given),96,40*
O=S(=O)(/N=C1\C=C2N(CCO)CCOC2(O)c2ccccc21)c1ccccc1 (stereo not given),95,/
COc1ccc(N2CCN(C(=O)CCS(=O)(=O)c3cc(Br)cc4c3N(C(=O)C3CC3)CC4)CC2)cc1,99,-5
C=CCN1C(=O)c2ccc(C(=O)OCC(=O)c3cc(C)n(-c4cc(C)on4)c3C)cc2C1=O,/,3
Cc1[nH]c2ccc(C(=O)OCC(=O)c3cc4ccccc4o3)cc2c1C,/,-8
Cn1c(=O)c(NC2CCCCC2)c2c3c(cccc31)C(=O)c1ccccc1-2,3.5*,/
CCNc1c2c3c(cccc3n(C)c1=O)C(=O)c1ccccc1-2,/,-17
O=C(OCCN1C(=O)c2ccccc2C1=O)C1CCN(S(=O)(=O)c2cccs2)CC1,/,-36
CCc1ccc2occ(CC(=O)N(Cc3ccc(N(C)C)cc3)C3CCS(=O)(=O)C3)c2c1 (stereo not given),107,-18
N#Cc1c(N)nc(SCC(=O)Nc2ccc([N+](=O)[O-])cc2)c(C#N)c1-c1ccco1,97,-27
N#Cc1c(N)nc(SCC(=O)c2ccc(Br)cc2)c(C#N)c1-c1ccccc1,101,7
COc1ccc(-c2c(C#N)c(N)nc(SCC(=O)OCc3ccccc3)c2C#N)cc1,104,4
N#Cc1c(N)nc(SCC(=O)Nc2ccccc2)c(C#N)c1-c1ccccc1,98,24*
CCOc1ccc(-c2c(C#N)c(N)nc(SCC(=O)OC)c2C#N)cc1,105,73*

# Random excerpt: two records from the list.
SMILES,GIV Gai3 FP,HCMV NEC inh
N#Cc1c(N)nc(SCC(=O)c2ccc(Br)cc2)c(C#N)c1-c1ccccc1,101,7
CCc1ccc2occ(CC(=O)N(Cc3ccc(N(C)C)cc3)C3CCS(=O)(=O)C3)c2c1 (stereo not given),107,-18

# Additional structures follow.
SMILES,GIV Gai3 FP,HCMV NEC inh
N#Cc1c(N)nc(SCC(=O)c2ccc(Br)cc2)c(C#N)c1-c1cccs1,100,40*
COc1ccccc1NC(=O)NCc1ccnc(N2CCCCC2)c1,108,/
CCC(=O)N1N=C(c2cccs2)CC1c1cccs1 (stereo not given),110,-87
CCN(CCC#N)c1ccc(/C=C(\C#N)C(=O)NC(C)C)c(C)c1,/,-77
CCN(CC)c1ccc(/C=C(/C#N)C(=O)NC(C)C)o1,-102*,-162
C/C(=N\NC(=O)Cc1nc2ccccc2n1C)c1ccc(S(=O)(=O)NCCC(=O)O)cc1,/,-23
Cn1nc(C(=O)NCCN2CCOCC2)c2c1-c1ccsc1CC2,104,7
CCOC(=O)c1c(C)n(C)c2ccc(O)cc12,108,-15
CCOC(=O)c1c2ccc(O)cc2n2ccccc12,69*,-49
COc1cc(C(=O)Nc2nnc(CC(C)(C)C)s2)cc(OC)c1OC,106,8
Cc1nc2c3c(cccc3n1)C(=O)c1ccccc1-2,91,-96
Nc1cnc2cccc3c2c1-c1ccccc1C3=O,-74*,-60
N#CC(C(=O)COc1ccccc1)c1ccccc1 (stereo not given),103,-17
O=c1oc2cc(O)ccc2cc1-c1nc(-c2ccc(Cl)c(Cl)c2)cs1,-69*,/
CC(=O)Oc1ccc2cc(-c3nc(-c4cccs4)cs3)c(=O)oc2c1,150,/
CC(=O)Oc1ccc2cc(-c3nc(-c4ccc(Cl)c(Cl)c4)cs3)c(=O)oc2c1,116,/
O=c1oc2cc(O)ccc2cc1-c1nc(-c2cccs2)cs1,-32*,/
O=C(CCS(=O)(=O)c1cc2c(cc1Cl)NC(=O)CO2)NCc1ccccc1Cl,102,/
CN(C1=CC(=O)c2ccccc2C1=O)c1ccccc1,/,51
COC1=CC(=O)c2ccccc2C1=O,97,101*
COc1ccc(C2=NN(C(=O)CSc3n[nH]c(-c4ccc(Br)cc4)n3)C(c3ccco3)C2)cc1 (stereo not given),/,-20
COc1ccc(N(C)C(=O)C2COc3ccccc3O2)cc1 (stereo not given),/,-12
CC(c1ccccc1)C1C(C#N)=C(N)SC(N)=C1C#N (stereo not given),108,-18

# Assay outcomes (PubChem BioAssay)
